Measurements from paper PMC8214093, “Structural basis of KdpD histidine kinase binding to the second messenger c-di-AMP” (The Journal of Biological Chemistry, 2021).

Molecular target: T1, USPSa-H331A (Staphylococcus aureus, UniProt A0A7U7EVR3, H331A)
T1 sequence (A0A7U7EVR3 213-364 H331A): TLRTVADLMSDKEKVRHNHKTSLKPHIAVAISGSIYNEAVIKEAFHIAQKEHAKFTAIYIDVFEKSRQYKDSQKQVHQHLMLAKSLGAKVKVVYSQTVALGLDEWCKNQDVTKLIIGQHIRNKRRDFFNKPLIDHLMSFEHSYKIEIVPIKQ
Test: MicroScale Thermophoresis (initial fluorescence change) nucleotide binding
Conditions: His331 to Ala mutant; relative to WT USPSa
Description: The ligand-binding specificity of USPSa, the role of USPSa residues in c-di-AMP binding, and the c-di-AMP binding affinity of USP homologs were biochemically determined by MST, using purified WT and mutant proteins. […] For these MST experiments, WT and active-site mutants of His6-USPSa were first fluorescently labeled using a RED-Tris NTA Monolith His-Tag labeling kit (Nanotemper, Technologies, Inc). For labeling, the proteins were diluted to a concentration of 800 nM in binding buffer (50 mM potassium phosphate, pH 8.0, 800 mM NaCl, and 0.05% Tween 20), mixed with an equal volume of RED-Tris-NTA dye (80 nM), and incubated on ice in the dark for 30 min. […]
The samples were then loaded into Monolith standard-treated capillaries in triplicate, and the changes in fluorescence were measured with 40% LED power and 20% IR-laser power for an on-time of 20-s at 23 °C. To determine the binding affinity, the ligand-dependent changes in the intensity of the initial fluorescence, or the thermophoretic mobility, were analyzed according to the law of mass action in a standard fitting mode of MO.Affinity analysis software (version 2.3). […] In the His6-peptide test, a control His6-peptide was used instead of USP in the binding assay described above, and if no change in initial fluorescence occurred, this confirmed the USP-specific binding of ligands. […]

Nc1ncnc2c1ncn2[C@@H]1O[C@@H]2COP(=O)(O)O[C@H]3[C@@H](O)[C@H](n4cnc5c(N)ncnc54)O[C@@H]3COP(=O)(O)O[C@H]2[C@H]1O [c-di-AMP, cyclic-di-adenosine monophosphate]
loss of relative binding affinity: ~60%
